Tests used:
[1] = biological target: Amine oxidase [flavin-containing] B (Homo sapiens, UniProt P27338); experiment: Inhibition of recombinant human MAO-B assessed as inhibition of kynuramine to 4-hydroxyquinoline conversion after 20 mins by fluorometry
Homo sapiens = organism: Homo sapiens; experiment: Selectivity ratio of IC50 for recombinant human MAO-A to IC50 for recombinant human MAO-B
Outline: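 This is a selectivity index for MAO-B, computed as IC50(MAO-A)/IC50(MAO-B). Both IC50s were measured fluorometrically on recombinant human enzymes as kynuramine conversion to 4-hydroxyquinoline, in triplicate.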

The chains behind the UniProt entries cited, without tags or fusion partners.
UniProt P27338, whole entry: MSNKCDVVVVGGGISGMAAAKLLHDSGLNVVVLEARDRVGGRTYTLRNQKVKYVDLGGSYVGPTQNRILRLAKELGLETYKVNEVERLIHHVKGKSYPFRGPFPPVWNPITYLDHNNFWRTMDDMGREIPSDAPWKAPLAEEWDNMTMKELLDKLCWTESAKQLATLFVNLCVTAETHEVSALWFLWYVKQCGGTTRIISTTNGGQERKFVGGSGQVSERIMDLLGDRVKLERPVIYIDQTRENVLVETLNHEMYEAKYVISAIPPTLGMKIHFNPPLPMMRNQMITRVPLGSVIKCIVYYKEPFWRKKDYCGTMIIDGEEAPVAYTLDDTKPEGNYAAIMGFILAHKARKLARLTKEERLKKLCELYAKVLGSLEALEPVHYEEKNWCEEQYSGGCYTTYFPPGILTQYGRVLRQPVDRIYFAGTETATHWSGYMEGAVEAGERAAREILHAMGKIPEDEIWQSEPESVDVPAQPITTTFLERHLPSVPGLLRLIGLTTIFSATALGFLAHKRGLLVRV

O=C1CC(O)Oc2ccc(OCc3cccc(Br)c3)cc21 (configuration not stated)
IC50 [1]: 5.7 nM | Ratio IC50 (Homo sapiens): 269
